Experimental data as given in ChEMBL document CHEMBL1126372, “Synthesis of L-chiro-inositol 1,4,6-trisphosphorothioate, a potent and selective inhibitor of myo-inositol 1,4,5-trisphosphate 5-phosphatase” (Bioorg Med Chem Lett, 1992).

Species: Homo sapiens

## O=P(O)(O)O[C@@H]1[C@H](O)[C@H](O)[C@@H](OP(=O)(O)O)[C@H](OP(=O)(O)O)[C@H]1O [INS(1,4,5)P3]
  Km: 19 µM
